From paper PMC8102310 (Cancer discovery, 2021)

The chains behind the UniProt entries cited, without tags or fusion partners. Residues count along the entry.
UniProt Q09472, 1049-1156 limits assumed: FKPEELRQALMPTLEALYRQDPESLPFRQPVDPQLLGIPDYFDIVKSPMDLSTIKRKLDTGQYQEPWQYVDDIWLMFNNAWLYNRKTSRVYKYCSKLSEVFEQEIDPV
UniProt Q09472, whole entry: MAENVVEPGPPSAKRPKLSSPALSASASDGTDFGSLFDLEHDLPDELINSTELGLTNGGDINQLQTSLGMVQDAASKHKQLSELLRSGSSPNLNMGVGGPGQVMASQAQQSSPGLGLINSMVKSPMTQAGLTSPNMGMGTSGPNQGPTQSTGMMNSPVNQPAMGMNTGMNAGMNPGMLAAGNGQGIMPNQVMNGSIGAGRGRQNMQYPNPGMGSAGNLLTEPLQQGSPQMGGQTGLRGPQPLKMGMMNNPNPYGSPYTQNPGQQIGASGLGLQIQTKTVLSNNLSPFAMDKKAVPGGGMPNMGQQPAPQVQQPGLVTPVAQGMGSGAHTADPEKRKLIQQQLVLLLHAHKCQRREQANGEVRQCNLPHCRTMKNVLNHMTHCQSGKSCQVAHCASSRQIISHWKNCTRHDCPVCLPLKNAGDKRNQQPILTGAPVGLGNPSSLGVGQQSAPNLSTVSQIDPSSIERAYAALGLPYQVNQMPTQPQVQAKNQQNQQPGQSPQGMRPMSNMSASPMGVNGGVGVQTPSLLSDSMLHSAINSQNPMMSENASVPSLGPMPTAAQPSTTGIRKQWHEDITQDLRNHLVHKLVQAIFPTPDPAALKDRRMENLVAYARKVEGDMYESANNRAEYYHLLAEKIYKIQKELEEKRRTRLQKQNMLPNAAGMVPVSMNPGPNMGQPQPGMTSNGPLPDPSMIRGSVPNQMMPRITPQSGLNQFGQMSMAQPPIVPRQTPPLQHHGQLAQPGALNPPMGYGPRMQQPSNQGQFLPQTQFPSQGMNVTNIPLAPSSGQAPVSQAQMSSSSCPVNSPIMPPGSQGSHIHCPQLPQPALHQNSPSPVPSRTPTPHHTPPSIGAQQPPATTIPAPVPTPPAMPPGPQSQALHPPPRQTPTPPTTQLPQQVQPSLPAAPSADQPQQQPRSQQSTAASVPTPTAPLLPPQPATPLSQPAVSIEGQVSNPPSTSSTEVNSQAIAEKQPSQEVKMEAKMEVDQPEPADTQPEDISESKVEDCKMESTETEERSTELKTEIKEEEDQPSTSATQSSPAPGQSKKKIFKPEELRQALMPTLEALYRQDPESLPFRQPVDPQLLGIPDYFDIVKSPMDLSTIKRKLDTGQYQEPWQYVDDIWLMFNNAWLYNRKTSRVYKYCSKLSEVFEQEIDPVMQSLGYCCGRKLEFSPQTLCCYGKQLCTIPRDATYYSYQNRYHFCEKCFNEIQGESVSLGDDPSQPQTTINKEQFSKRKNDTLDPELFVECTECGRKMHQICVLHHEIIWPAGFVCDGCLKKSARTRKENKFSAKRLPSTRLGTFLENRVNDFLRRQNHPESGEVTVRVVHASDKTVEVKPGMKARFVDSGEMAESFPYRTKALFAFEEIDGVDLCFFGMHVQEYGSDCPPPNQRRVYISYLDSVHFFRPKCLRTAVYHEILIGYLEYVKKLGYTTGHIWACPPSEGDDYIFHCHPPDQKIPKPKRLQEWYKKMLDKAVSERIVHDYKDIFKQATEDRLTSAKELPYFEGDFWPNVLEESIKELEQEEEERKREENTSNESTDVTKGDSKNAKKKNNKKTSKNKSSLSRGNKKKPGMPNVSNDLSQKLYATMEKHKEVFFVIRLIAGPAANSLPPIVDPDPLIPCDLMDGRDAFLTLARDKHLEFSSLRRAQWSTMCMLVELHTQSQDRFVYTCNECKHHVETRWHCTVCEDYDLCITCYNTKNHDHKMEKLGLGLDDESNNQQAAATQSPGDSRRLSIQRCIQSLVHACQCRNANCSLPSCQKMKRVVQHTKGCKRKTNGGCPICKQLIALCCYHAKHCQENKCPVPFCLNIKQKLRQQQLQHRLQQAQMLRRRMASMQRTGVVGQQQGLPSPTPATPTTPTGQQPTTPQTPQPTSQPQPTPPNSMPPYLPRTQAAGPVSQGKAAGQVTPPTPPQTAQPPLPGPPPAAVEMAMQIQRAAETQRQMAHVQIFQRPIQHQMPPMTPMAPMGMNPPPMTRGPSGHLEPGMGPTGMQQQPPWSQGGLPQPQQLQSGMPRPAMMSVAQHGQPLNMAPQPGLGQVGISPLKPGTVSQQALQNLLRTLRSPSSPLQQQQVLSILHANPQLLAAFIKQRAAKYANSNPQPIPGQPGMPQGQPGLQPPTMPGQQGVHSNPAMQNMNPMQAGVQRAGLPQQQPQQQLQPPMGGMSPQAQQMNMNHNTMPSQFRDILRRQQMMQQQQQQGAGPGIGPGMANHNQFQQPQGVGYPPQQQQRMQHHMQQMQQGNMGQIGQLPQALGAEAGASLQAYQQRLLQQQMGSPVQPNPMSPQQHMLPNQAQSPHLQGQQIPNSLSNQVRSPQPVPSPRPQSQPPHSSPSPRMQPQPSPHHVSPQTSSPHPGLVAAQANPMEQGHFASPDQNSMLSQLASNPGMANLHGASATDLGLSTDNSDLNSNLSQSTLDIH
UniProt Q92793, 1085-1192 limits assumed: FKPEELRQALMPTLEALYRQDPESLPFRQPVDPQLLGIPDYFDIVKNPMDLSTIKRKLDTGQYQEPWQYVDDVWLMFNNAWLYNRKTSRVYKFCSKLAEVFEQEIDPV

Legend:
p300 bromodomain [1] = target: T1, p300 bromodomain (Homo sapiens, UniProt Q09472); details: SPR Kd ratio
CBP bromodomain = CBP bromodomain (Homo sapiens, UniProt Q92793); details: SPR Kd ratio
p300 bromodomain [2] = target: T1, p300 bromodomain; test: cell-based

Compound: CO[C@H]1CC[C@H](n2c([C@@H]3CCCC(=O)N3c3ccc(F)c(F)c3)nc3cc(-c4c(C)noc4C)ccc32)CC1 [CCS1477]
- selectivity for p300 compared with BRD4 (p300 bromodomain [1]): 170 fold
- selectivity for CBP compared with BRD4 (CBP bromodomain): 130 fold
- IC50 (p300 bromodomain [2]): 0.019 µM
